This note sets out measurements from ChEMBL document CHEMBL1129591 (J Med Chem, 1996).

Protein sequences, listed by entry. Tags and fused reporters are not part of them.
UniProt P08908, whole entry: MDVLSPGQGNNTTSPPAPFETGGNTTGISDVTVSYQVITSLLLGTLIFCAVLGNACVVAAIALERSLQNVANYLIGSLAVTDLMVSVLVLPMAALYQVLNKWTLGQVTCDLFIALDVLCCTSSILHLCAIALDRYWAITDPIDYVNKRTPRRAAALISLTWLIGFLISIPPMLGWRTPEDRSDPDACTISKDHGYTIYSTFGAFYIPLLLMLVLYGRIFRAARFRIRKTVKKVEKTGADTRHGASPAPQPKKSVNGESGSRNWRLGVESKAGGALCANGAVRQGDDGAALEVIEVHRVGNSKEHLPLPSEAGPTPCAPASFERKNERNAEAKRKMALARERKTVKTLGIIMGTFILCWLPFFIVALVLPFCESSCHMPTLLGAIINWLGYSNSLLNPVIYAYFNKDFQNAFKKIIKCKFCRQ

The structures appear in SMILES notation.

The target in the assay is 5-hydroxytryptamine receptor 1A (Homo sapiens, UniProt P08908). Description: Ability to inhibit the forskolin-stimulated c-AMP formation mediated by human 5-hydroxytryptamine 1A receptor in CHO-K1 cells. Format: functional, cell-based.

For the compound `CC(=O)Nc1ccc(N2CCN(C(=O)COc3ccc4[nH]cc(CCN)c4c3)CC2)cc1`, affinity was put at a Ki of 134 nM.

As a reminder, the Ki is the dissociation constant of the complex between target and ligand, obtained from inhibition or displacement. Read a low Ki as a stronger hold on the target.
